Data from PubChem BioAssay AID841 (Emory University Molecular Libraries Screening Center, 2007).
The entries are a selection whose mix differs from that of the whole data set. Some results for these compounds are left out of this collection, so the calls shown say nothing about other tests. Activity calls are given as the source filed them. Rule as the data show it: active = protection mostly above about 24% (no sharp cut-off); inactive = mostly below about 26%.

Assay: compounds protecting cells from measles virus cytopathic effect, primary screen, measles RdRp inhibitor project, single point, MLSMR library, absorbance (AID 841)
Settings: Measles virus-infected cells, CPE protection, at 4 µM, stronger effect = higher value
With CC(C)N1C(=O)CC2(CCN(CCOC(=O)C(O)(c3ccccc3)c3ccccc3)CC2)C1=O the protection (pct of control) was inactive: 3.71%. With CCN1CCCC(OC(=O)C2(O)c3ccccc3C=Cc3ccccc32)C1 (stereo not given) the protection (pct of control) was inactive: 10.6%. In the case of CN(C)C1CCCC1OC(=O)C(O)(c1ccccc1)c1ccccc1 (stereo not given), the protection (pct of control) is reported as inactive: 9.53%. With CN(C)c1cccc(C(=O)NCC2(N(C)C)CCCCC2)c1 the protection (pct of control) was active: 44.5%. For O=C(OC1CN2CCC1CC2)C(CO)(c1ccccc1)c1ccccc1 (stereo not given), the protection (pct of control) was inactive: 2.66%.
